Structures can show the parent of a compound that is named as a salt. Where two headings read alike, the source gives them in different places.
How the values were obtained:
[1] = tested on: primary rat microglia;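 as to Fibrin % cell toxicity: share of dead cells sized under 150 µm2 at 10 µM in fibrin-stimulated microglia HTS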
[2] = tested on: primary rat microglia; remark: listed apart in the source;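 as to Fibrin % cell toxicity: share of dead cells sized under 150 µm2 at 10 µM in fibrin-stimulated microglia HTS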
[3] = tested on: fibrin-induced microglia activation; assay: Image-based assay of fibrin-induced microglia activation (HTS and dose response)
[4] = tested on: LPS-induced microglia activation; assay: Image-based assay of LPS-induced microglia activation (HTS and dose response); conditions: Rattus norvegicus

Row | Molecule | Fibrin % cell toxicity ([1]; rat) [%] | LPS % cell toxicity ([2]; rat) [%] | also measured
1 | O=C(CCCN1CC=C(n2c(=O)[nH]c3ccccc32)CC1)c1ccc(F)cc1 [Droperidol] | 1 | 1 | 
2 | C[C@]12CC[C@@H]3c4ccc(O)cc4CC[C@H]3[C@@H]1C[C@@H](O)[C@@H]2O [Estriol] | 1 | 1 | 
3 | C[C@H](N)[C@H](O)c1ccccc1.Cl |  |  | Fibrin % cell toxicity [1]: 1%; LPS % cell toxicity [2]: 0%
4 | CC(=O)O[C@]1(C(C)=O)CC[C@H]2[C@@H]3C=C(Cl)C4=CC(=O)CC[C@]4(C)[C@H]3CC[C@@]21C [Chlormadinone acetate, reference compound] |  |  | IC50 ([3]; Rattus norvegicus, Microglia, 48 h, read-out: Fibrin IC50, Table 1, dose response 0.001-20 μM, triplicates, primary rat microglia, 48 h): 17 µM; IC50 ([3]; Rattus norvegicus, Microglia, read-out: Fibrin IC50 (uM) (Suppl. Table 7), fibrin-induced microglia activation, dose response): 17 µM; IC50 ([3]; Rattus norvegicus, Microglia, read-out: Fibrin IC50 (uM), dose response, fibrin-induced microglia activation): 17 µM
5 | [H]/N=C(/N)N/C(=N/[H])NCCc1ccccc1 [Phenformin] |  | 0 | 
6 | Hydrocortisone hemisuccinate [reference compound] |  |  | Fibrin Selectivity [3]: 350; Fibrin Selectivity (LOG10) [3]: 2.54
7 | Cc1c(C(N)=O)cc([N+](=O)[O-])cc1[N+](=O)[O-] [Dinitolmide] | 1 |  | 
8 | CC(=O)Oc1c(C)c(C)c2c(c1C)CCC(C)(CCCC(C)CCCC(C)CCCC(C)C)O2 (stereo not drawn) [Alpha-tochopheryl Acetate] |  |  | Fibrin % cell toxicity [1]: 1%; LPS % cell toxicity [2]: 0%
9 | CC[C@H](C)C(=O)O[C@H]1C[C@@H](C)C=C2C=C[C@H](C)[C@H](CC[C@@H]3C[C@@H](O)CC(=O)O3)[C@H]21 [Lovastatin] |  | 2 | 
10 | CC1=C(/C=C/C(C)=C/C=C/C(C)=C/C=C/C=C(C)/C=C/C=C(C)/C=C/C2=C(C)CCCC2(C)C)C(C)(C)CCC1 [Beta-carotene] |  | 0 | 
11 | C[C@]12CC[C@H]3[C@@H](CCC4=CC(=O)CC[C@@]43C)[C@@H]1CC[C@@H]2O [Testosterone] |  | 0 | 
12 | CN1CCN2c3ccccc3Cc3ccccc3C2C1 (stereo not shown) [Mianserin] | 0 | 0 | 
13 | O=C1[O][Pt]2([NH][C@@H]3CCCC[C@H]3[NH]2)[O]C1=O [Oxaliplatin, reference compound] |  |  | Fibrin Selectivity [3]: 3; Fibrin Selectivity (LOG10) [3]: 0.48
14 | CC(=O)[C@@]1(O)CC[C@H]2[C@@H]3C=C(Cl)C4=CC(=O)[C@@H]5C[C@@H]5[C@]4(C)[C@H]3CC[C@@]21C [Cyproterone, reference compound] |  |  | IC50 ([3]; read-out: Fibrin IC50 (uM) (Suppl. Table 7), fibrin-induced microglia activation, dose response): 17 µM; IC50 ([3]; read-out: Fibrin IC50, Table 1, dose response 0.001-20 μM, triplicates, primary rat microglia, 48 h): 17 µM; IC50 ([3]; read-out: Fibrin IC50, dose response, fibrin-induced microglia activation): 17 µM
15 | CCC1(c2ccccc2)C(=O)NCNC1=O [Primidone] |  | 0 | 
16 | CC(C)C[C@H](CN)CC(=O)O [Pregabalin] | 1 | 0 | 

Row | Molecule | Fibrin % cell toxicity ([1]; rat) [%] | LPS % cell toxicity ([2]; rat) [%] | also measured
17 | CN1CCc2cccc3c2[C@H]1Cc1ccc(O)c(O)c1-3.Cl [R(−)-Apomorphine hydrochloride, reference compound] |  |  | LPS % cell toxicity [2]: 0%
18 | NC(N)=Nc1nc(CSCCC(N)=NS(N)(=O)=O)cs1 [Famotidine] |  | 0 | 
19 | C[C@]12CC[C@H](O)CC1=CC[C@@H]1[C@@H]2CC[C@]2(C)C(=O)CC[C@@H]12 [Prasterone] |  | 0 | 
20 | CC(N)C(O)c1ccccc1 (stereo not shown) [Phenylpropanolamine] | 1 | 1 | 
21 | CNCC[C@@H](Oc1ccccc1C)c1ccccc1 [Atomoxetine Hydrochloride] |  | 1 | 
22 | C[C@H]1C[C@@H]2[C@H]([C@@H](O)C[C@@]3(C)[C@H]2CC[C@]3(O)C(=O)CO)[C@@]2(C)C=CC(=O)C=C12 [Methylprednisolone, reference compound] |  |  | Fibrin Selectivity [3]: 15; Fibrin Selectivity (LOG10) [3]: 1.19
23 | CC1(C)S[C@@H]2[C@H](NC(=O)[C@H](N)c3ccc(O)cc3)C(=O)N2[C@H]1C(=O)O [Amoxicillin] |  | 0 | 
24 | C[C@]12CCC(=O)C=C1CC[C@@H]1[C@@H]2[C@@H](O)C[C@@]2(C)[C@H]1CC[C@]2(O)C(=O)CO [Hydrocortisone, reference compound] |  |  | Fibrin Selectivity (LOG10) [3]: 2.75
25 | O=C(CCBr)N1CCN(C(=O)CCBr)CC1 [Pipobroman] | 0 |  | 
26 | Cc1cccc(N(C)C(=S)Oc2ccc3ccccc3c2)c1 [Tolnaftate, reference compound] |  |  | IC50 ([4]; 48 h, read-out: LPS IC50, Table 1, dose response 0.001-20 μM, triplicates, primary rat microglia, 48 h): 17 µM; IC50 ([4]; read-out: LPS IC50 (uM) (Suppl. Table 7), LPS-induced microglia activation, dose response): 17 µM; IC50 ([4]; read-out: LPS IC50 (uM) (Suppl. Table 7), Table 3): 17 µM; IC50 ([4]; read-out: LPS IC50 (uM), dose response, LPS-induced microglia activation): 17 µM
27 | NC(=O)c1ncn([C@@H]2O[C@H](CO)[C@@H](O)[C@H]2O)n1 [Ribavirin, reference compound] | 2 |  | Fibrin Selectivity [3]: 2; Fibrin Selectivity (LOG10) [3]: 0.29
28 | Benzalkonium Chloride |  |  | Fibrin % inhibition ([3]; primary microglia HTS, fibrin stimulation, increased cell size (>800 μm^2) as marker of activation): 112%
29 | podophyllotoxin acetate |  |  | IC50 ([3]; read-out: fib_IC50, Table 7): 0.022 µM
30 | C[C@]12CC[C@@H]3c4ccc(O)cc4CC[C@H]3[C@@H]1C[C@H](O)[C@@H]2O [Epiestriol] | 0 | 0 | 
31 | CN(N=O)C(=O)N[C@@H](C=O)[C@@H](O)[C@H](O)[C@H](O)CO [Streptozocin] | 0 |  | 
32 | OCCN(CCO)c1nc(N2CCCCC2)c2nc(N(CCO)CCO)nc(N3CCCCC3)c2n1 [Dipyridamole] | 1 |  | 
